System: human IgE (cat allergic patient plasma)
Assay: Direct binding ELISA of human IgE to coated antigen
Conditions: percent of cat allergic patients with positive IgE binding
Procedure: The basic format of these ELISA assays was a direct binding assay wherein the antigen was coated onto the wells of a 96 well microtitre dish and then antibodies in solution are added and assayed for the binding capacity. The protocol for these assays was as follows:
The peptides were conjugated to HSA (human serum albumin) by two different methods based on their chemical structure. […] Both conjugates were filter purified and dialyzed against PBS. In the ELISA assay, the unbound coating antigens were removed and the wells were blocked with 0.5% gelatin in PBS, 200 μl/well for 2 hours at room temperature. The antibody solution was a pool of plasma samples from 20 patients that were skin test positive for commercial cat extract which was serially diluted with PBS-Tween 20 (PBS with 0.05% nonionic detergent Tween-Sigma, St. Louis Mo.) and 100 μl/well was added and incubated overnight at 4° C. (plasma dilutions are tested in duplicate). […] The second antibody (biotinylated goat anti-Human IgE, 1:1000 Kirkegaard & Perry Laboratories Inc. Gaithersburg, Md.), was added at 100 μl/well for one hour at room temperature. […] Plates are read on a Microplate EL 310 Autoreader (Biotek Instruments, Winooski, Vt.) with a 450 nm filter. The absorbance levels of duplicate wells were averaged.

Row | Substance | Positive Binding [%]
1 | Peptide X/HSA: peptide X conjugated to HSA (human serum albumin), EDC | 0
2 | Peptide Y/HSA: peptide Y conjugated to HSA through its cysteine residue, sulfo-SMCC | 0

— patent US7482008B1, “Human T cell reactive feline protein (TRFP) isolated from house dust and uses therefor” (Merck Patent GmbH, priority 1989, dated 2009)
